Test results from PubChem BioAssay AID528 (NMMLSC, 2006).
This is a selection; strong and weak results do not stand in their true shares. Records with an inconclusive call do not appear. Calls of active or inactive are those of the source.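 The calls were made as follows: active = fluorescent ligand binding to cells raised by more than 40% of the manganese-induced maximum; inconclusive = compound's own fluorescence above 85% of the ligand control signal; inactive = the rest.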

Amino acid sequences for entries named in this document (tags omitted).
UniProt P13612, whole entry, looked up: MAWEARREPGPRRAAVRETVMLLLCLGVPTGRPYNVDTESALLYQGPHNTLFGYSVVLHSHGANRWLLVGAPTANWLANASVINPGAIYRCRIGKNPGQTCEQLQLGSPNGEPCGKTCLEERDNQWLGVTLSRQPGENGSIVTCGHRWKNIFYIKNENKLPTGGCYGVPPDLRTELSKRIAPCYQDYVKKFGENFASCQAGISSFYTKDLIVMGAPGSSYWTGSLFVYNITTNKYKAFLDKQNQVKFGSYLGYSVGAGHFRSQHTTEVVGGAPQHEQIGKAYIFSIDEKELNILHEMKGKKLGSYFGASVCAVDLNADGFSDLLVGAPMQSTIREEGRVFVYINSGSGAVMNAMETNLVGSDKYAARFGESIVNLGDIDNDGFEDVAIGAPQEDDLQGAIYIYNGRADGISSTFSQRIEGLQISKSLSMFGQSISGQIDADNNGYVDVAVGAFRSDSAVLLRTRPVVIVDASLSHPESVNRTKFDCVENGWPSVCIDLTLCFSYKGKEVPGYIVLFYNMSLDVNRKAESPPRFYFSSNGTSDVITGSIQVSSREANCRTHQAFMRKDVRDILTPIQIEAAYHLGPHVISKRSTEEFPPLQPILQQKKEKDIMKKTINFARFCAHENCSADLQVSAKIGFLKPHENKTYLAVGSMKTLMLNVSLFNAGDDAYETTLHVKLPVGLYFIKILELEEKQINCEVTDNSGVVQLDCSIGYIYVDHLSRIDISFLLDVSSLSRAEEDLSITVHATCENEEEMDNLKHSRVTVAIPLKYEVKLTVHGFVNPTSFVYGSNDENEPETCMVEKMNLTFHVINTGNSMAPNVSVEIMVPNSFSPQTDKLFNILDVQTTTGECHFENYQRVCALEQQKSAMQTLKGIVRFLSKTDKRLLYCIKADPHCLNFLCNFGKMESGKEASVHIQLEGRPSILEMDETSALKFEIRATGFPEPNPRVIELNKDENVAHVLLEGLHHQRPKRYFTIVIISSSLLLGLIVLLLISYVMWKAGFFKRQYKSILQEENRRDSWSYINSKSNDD

What follows are compounds tested against Integrin alpha-4 (Homo sapiens) (UniProt P13612) (assay: increased LDV-FITC ligand binding on VLA-4 – Jurkat cells, flow cytometry, primary screen (AID 528;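 also: 0% = ligand binding without compound and 100% = manganese-stimulated maximal binding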)). Conditions: hits give high values, screened at 10 µM (by protocol).

| Compound | activation |
| --- | --- |
| Fc1ccccc1NC1CCN(Cc2ccccc2)CC1 | inactive: -3.5% |
| N#CC1(Nc2ccccc2)CCN(CCc2ccccc2)CC1 | inactive: -2% |
